For the assay, the target named is T1, Cow milk Xanthine Oxidase (Bos taurus, UniProt P80457).
T1 construct: Cow milk Xanthine Oxidase (Roche); purchased Roche; host or cells: cow milk (natural source)
The experiment in a line: Xanthine oxidase inhibition, in vitro (oxidation of xanthine, absorbance at 290 nm). In kind it is biochemical. Conditions: xanthine 250 μM, 50 mM phosphate buffer pH 7.5, 30° C., 10 minutes. On the procedure:
The xanthine oxidase inhibiting action (in vitro test) of the compound of the invention was confirmed by measuring inhibition of oxidation of xanthine by xanthine oxidase, as described in Example 50. As is clear from Tables 11 and 12, the compounds of the invention show excellent xanthine oxidase inhibiting action.
Pharmacological Experiment 1 (In Vitro Measuring Method)
1. Preparation of Test Sample
The test compound was dissolved in dimethylsulfoxide and diluted with 50 mM phosphate buffer (pH 7.5), to give a solution of a predetermined concentration.
125 μL of each of the solutions of the test compound having different concentrations was added to 1 mL of a solution of Xanthine (SIGMA, 250 μM) in the 50 mM phosphor buffer (pH 7.5). The mixture was then pre-incubated at 30° C. for 5 min. […] Subsequently, absorbance at OD 290 nm was measured by means of a spectrophotometer (Shimadzu UV-160A)., to obtain a inhibition ratio. The measured inhibition ration was used to obtain […]
The inhibition ratio was calculated according to the following formula: Inhibition ratio (%)=[1−(B−C)/(A−C)]×100 • A: absorbance of control • B: absorbance measured on a sample containing test compound • C: absorbance of blank (Test Results)

The chains behind the UniProt entries cited, without tags or fusion partners.
UniProt P80457, whole entry: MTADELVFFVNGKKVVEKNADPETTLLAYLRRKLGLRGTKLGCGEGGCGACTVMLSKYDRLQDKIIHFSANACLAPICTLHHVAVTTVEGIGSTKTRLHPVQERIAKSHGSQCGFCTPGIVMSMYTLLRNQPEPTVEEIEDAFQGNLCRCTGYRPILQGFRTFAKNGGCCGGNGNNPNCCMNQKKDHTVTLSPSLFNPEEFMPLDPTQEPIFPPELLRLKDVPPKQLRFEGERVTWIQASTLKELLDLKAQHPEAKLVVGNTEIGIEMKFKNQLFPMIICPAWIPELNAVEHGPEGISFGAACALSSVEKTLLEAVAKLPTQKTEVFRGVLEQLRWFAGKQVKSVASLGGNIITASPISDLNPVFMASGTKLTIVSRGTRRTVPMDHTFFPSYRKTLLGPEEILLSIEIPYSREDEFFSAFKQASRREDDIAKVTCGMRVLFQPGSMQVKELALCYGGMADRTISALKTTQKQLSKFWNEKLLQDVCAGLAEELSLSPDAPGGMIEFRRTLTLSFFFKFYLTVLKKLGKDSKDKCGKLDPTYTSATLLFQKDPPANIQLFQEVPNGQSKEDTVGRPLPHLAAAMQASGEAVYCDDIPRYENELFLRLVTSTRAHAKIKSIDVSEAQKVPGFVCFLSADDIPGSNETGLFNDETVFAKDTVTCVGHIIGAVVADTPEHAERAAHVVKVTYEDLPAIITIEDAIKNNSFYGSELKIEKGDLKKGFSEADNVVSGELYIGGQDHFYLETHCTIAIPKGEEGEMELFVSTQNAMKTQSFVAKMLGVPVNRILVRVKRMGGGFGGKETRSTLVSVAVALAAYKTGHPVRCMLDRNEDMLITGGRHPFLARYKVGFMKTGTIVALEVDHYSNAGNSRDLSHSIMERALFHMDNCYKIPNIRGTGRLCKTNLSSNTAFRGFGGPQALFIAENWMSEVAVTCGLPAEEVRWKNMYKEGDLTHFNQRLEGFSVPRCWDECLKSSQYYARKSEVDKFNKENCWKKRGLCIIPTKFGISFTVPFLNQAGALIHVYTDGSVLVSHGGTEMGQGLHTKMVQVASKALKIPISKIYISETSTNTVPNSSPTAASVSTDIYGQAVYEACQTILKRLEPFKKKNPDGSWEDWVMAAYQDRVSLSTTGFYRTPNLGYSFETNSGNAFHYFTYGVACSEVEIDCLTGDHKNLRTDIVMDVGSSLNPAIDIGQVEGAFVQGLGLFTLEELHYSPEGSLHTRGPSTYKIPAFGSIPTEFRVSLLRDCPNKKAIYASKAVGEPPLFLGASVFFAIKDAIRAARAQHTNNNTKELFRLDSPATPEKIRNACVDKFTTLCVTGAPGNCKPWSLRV

Broadly, the IC50 is the concentration needed to halve the response being measured. A high value points to weaker potency in that assay. “2-[3-Cyano-4-(4-fluorophenoxy)phenyl]-4-hydroxythiazolo[5,4-d]pyrimidine potassium salt [Example 37]” gave an IC50 of 0.0282 µM.

The values are drawn from patent publication US20070293512A1, “Condensed Pyrimidine Deriviative and Xanthine Oxidase Inhibitor” (priority 2004, published 2007).
